How the values were obtained:
PNH patient erythrocytes = experiment: Hemolysis of PNH patient erythrocytes in acidified donor-matched serum; format: cell-based, human; settings: 50% acidified donor-matched serum, 18 hours at 37° C.; two patients
Description: Erythrocytes were collected from PNH patient blood samples by centrifugation at 1000×g for 3 minutes to pellet, and washed 3 times with Alsever's solution. The cell pellet was resuspended 1:2 in GVB^++ buffer (Complement Technology, Tyler, Tex.). Donor-matched normal human sera was acidified to pH 6.4 by addition of HCl. PNH patient erythrocytes (2.5% v/v) were incubated in a clear 96-well assay plate with 50% acidified donor-matched serum and indicated concentrations of compounds for 18 hours at 37° C. Cells were then centrifuged at 1000×g for 3 minutes and 100 μl of the supernatant transferred to a separate clear 96-well assay plate for detection of absorbance at 412 nm.

[1] = tested on: alternative pathway residual hemolytic activity; experiment: Rabbit erythrocyte lysis assay with eculizumab-treated PNH patient plasma/serum; format: cell-based, human; settings: rabbit erythrocytes
Description: Inhibition of complement activity was evaluated by hemolysis of rabbit or PNH patient erythrocytes, and by measuring generation of C5a and C5b-9 by ELISA. […] Inhibition of C5 binding to the alternative pathway (AP) C5 convertase was measured by SPR.
Following incubation, the plate was centrifuged at 1000×g and 100 μL of supernatant was transferred to a new 96-well clear assay plate and the absorbance at 412 nm was measured. Absorbance values were normalized to a plate control of 25% (final concentration) normal human sera (#NHS; Complement Technology Inc., Tyler, Tex.) which was set to 100% hemolysis.

patients with PNH = settings: UK PNH National Service Reports; cited from earlier work

B1: eculizumab: a C5 inhibitor monoclonal antibody, approved treatment for PNH (Alexion Pharmaceuticals) (antibody, chains of the INN, looked up)
heavy: QVQLVQSGAEVKKPGASVKVSCKASGYIFSNYWIQWVRQAPGQGLEWMGEILPGSGSTEYTENFKDRVTMTRDTSTSTVYMELSSLRSEDTAVYYCARYFFGSSPNWYFDVWGQGTLVTVSSASTKGPSVFPLAPCSRSTSESTAALGCLVKDYFPEPVTVSWNSGALTSGVHTFPAVLQSSGLYSLSSVVTVPSSNFGTQTYTCNVDHKPSNTKVDKTVERKCCVECPPCPAPPVAGPSVFLFPPKPKDTLMISRTPEVTCVVVDVSQEDPEVQFNWYVDGVEVHNAKTKPREEQFNSTYRVVSVLTVLHQDWLNGKEYKCKVSNKGLPSSIEKTISKAKGQPREPQVYTLPPSQEEMTKNQVSLTCLVKGFYPSDIAVEWESNGQPENNYKTTPPVLDSDGSFFLYSRLTVDKSRWQEGNVFSCSVMHEALHNHYTQKSLSLSLG
light: DIQMTQSPSSLSASVGDRVTITCGASENIYGALNWYQQKPGKAPKLLIYGATNLADGVPSRFSGSGSGTDFTLTISSLQPEDFATYYCQNVLNTPLTFGQGTKVEIKRTVAAPSVFIFPPSDEQLKSGTASVVCLLNNFYPREAKVQWKVDNALQSGNSQESVTEQDSKDSTYSLSSTLTLSKADYEKHKVYACEVTHQGLSSPVTKSFNRGEC
hemolysis of PNH patient erythrocytes (PNH patient erythrocytes): partially inhibits hemolysis | effect on residual hemolytic activity [1]: only modest inhibition of hemolysis | patients requiring non-standard doses due to breakthrough hemolysis at the standard dose (patients with PNH): ~22%
